Calls of active or inactive are those of the source. The calls are words filed in the database; no cut-off is given here.
System: Mus musculus
Assay: Antinociceptive activity in CD-1 mouse assessed as increase in reaction time at 5 mg/kg, sc administered on day 6 after KOR1-exon2 antisense oligodeoxynucleotide injection on day 1, 3 and 5 by radiant heat tail flick assay

CN(C(=O)Cc1ccc(Cl)c(Cl)c1)C1CCCCC1N1CCCC1 (stereo unspecified)
Activity: inactive

— ChEMBL document CHEMBL4428076 (J Med Chem, 2016)
